The subject of this experiment is rFX. The experiment can be described thus: FX activity by FX-Coatest-Kit (RVV activation, chromogenic substrate S-2337). The class given is biochemical, human. To be noted: incubated with CHO supernatants (without r-furin), up to 6 hours. The protocol:
d. Activity of the in vitro-processed CHO-rFX The supernatants from the experiment mentioned under c.) subsequently were tested for FX activity by means of FX-Coatest-Kit (from Chromogenix). For this, 50 μl of each supernatant were admixed with 50 μl of FX-deficient human plasma, and according to the protocol of the producer, rFX was reacted to rFXa with snake venom (RVV) in the presence of CaCl2; rFXa subsequently hydrolyses the chromogenic substrate (S-2337) and leads to the liberation of the yellow-coloured paranitroaniline. Since the amount of rFXa and the colour intensity are proportional to each other, the amount of rFX activatable to rFXa/ml cell culture supernatant can be determined with the help of a calibration straight line, interpolated from values of the plasma dilution series. […]

In the case of “CHO-rFX: recombinant human factor X expressed in CHO cells, cell culture supernatant”, the “functional rFX” value is reported as 19-25% and the rFXa activity is listed as 150-200 mU/ml.

For the origin of these results see patent US6210929A, “Fusion protein comprising a furin derivative or a derivative of a furin analogue and a heterologous sequence” (Baxter Aktiengesellschaft, priority 1995, dated 2001).
